Our source for the IC50 values is patent US10800786B2, “Bicyclic compounds as ATX inhibitors” (Hoffmann-La Roche Inc., priority 2015, dated 2020).

For this test, the target named is ATX (human His-tagged) (Homo sapiens (Human), UniProt Q13822). Nature of the test: Human ATX enzyme inhibition assay (fluorescence quenching, MR121 substrate). It counts as biochemical. To be noted: 30 nM ATX, 30° C., pH 8.0. The procedure:
Human Atx Enzyme Inhibition Assay
Assay working solutions were made as follows:
Assay buffer (50 mM Tris-HCl, 140 mM NaCl, 5 mM KCl, 1 mM CaCl2, 1 mM MgCl2, 0.01% Triton-X-100, pH 8.0;
MR121 substrate solution: MR121 substrate stock solution (800 μM MR121 substrate in DMSO), diluted to 2-5× final concentration in assay buffer.
10 μL of MR121 substrate solution was added ([…] final concentration), mixed 30 times and then incubated for 15 minutes at 30° C.

The compound `O=C(c1cc(OCC2CCOCC2)nc(C2CC2)c1)N1CC2=C(C1)CN(C(=O)N1CCc3c(O)noc3C1)C2` [Example 2.01, [2-cyclopropyl-6-(oxan-4-ylmethoxy)pyridin-4-yl]-[5-(3-hydroxy-5,7-dihydro-4H-[1,2]oxazolo[5,4-c]pyridine-6-carbonyl)-1,3,4,6-tetrahydropyrrolo[3,4-c]pyrrol-2-yl]methanone] displayed an IC50 of 1 nM.
The compound `CC(C)(C)C(=O)Nc1cc(Cl)cnc1COC(=O)N1CC2=C(C1)CN(C(=O)N1CCc3c(O)noc3C1)C2` [Example 2.03, [5-chloro-3-(2,2-dimethylpropanoyl amino)pyridin-2-yl]methyl 2-(3-hydroxy-5,7-dihydro-4H-[1,2]oxazolo[5,4-c]pyridine-6-carbonyl)-1,3,4,6-tetrahydropyrrolo[3,4-c]pyrrole-5-carboxylate] came in with an IC50 of 128 nM.
The figure for `CC(C)(C)C(=O)Nc1cc(Cl)c(Cl)nc1COC(=O)N1CC2=C(C1)CN(C(=O)N1CCc3c(O)noc3C1)C2` [Example 2.05, [5,6-dichloro-3-(2,2-dimethylpropanoylamino)pyridin-2-yl]methyl 2-(3-hydroxy-5,7-dihydro-4H-[1,2]oxazolo[5,4-c]pyridine-6-carbonyl)-1,3,4,6-tetrahydropyrrolo[3,4-c]pyrrole-5-carboxylate] is 7 nM; for `CC(C)(C)C(=O)Nc1cc(C(F)(F)F)cnc1COC(=O)N1CC2=C(C1)CN(C(=O)N1CCc3c(O)noc3C1)C2` [Example 2.06, [3-(2,2-dimethylpropanoylamino)-5-(trifluoromethyl)pyridin-2-yl]methyl 2-(3-hydroxy-5,7-dihydro-4H-[1,2]oxazolo[5,4-c]pyridine-6-carbonyl)-1,3,4,6-tetrahydropyrrolo[3,4-c]pyrrole-5-carboxylate] it is 5 nM.
Take `O=C(c1cc(OCC(F)(F)F)nc(C2CC2)c1)N1CC2=C(C1)CN(C(=O)N1CCc3c(O)noc3C1)C2` [Example 2.09, [2-cyclopropyl-6-(2,2,2-trifluoroethoxy)pyridin-4-yl]-[5-(3-hydroxy-5,7-dihydro-4H-[1,2]oxazolo[5,4-c]pyridine-6-carbonyl)-1,3,4,6-tetrahydropyrrolo[3,4-c]pyrrol-2-yl]methanone]: the midpoint of inhibition, the IC50, lay at 10 nM.
Compound `Cc1nnn(Cc2cc(C(F)(F)F)ccc2CCC(=O)N2CC3=C(C2)CN(C(=O)N2CCc4c(O)noc4C2)C3)n1` [Example 2.10, 1-[5-(3-hydroxy-5,7-dihydro-4H-[1,2]oxazolo[5,4-c]pyridine-6-carbonyl)-1,3,4,6-tetrahydropyrrolo[3,4-c]pyrrol-2-yl]-3-[2-[(5-methyltetrazol-2-yl)methyl]-4-(trifluoromethyl)phenyl]propan-1-one] came in with an IC50 of 9 nM.
The result for `O=C(c1cnc(OCC(F)(F)F)c(C2CC2)c1)N1CC2=C(C1)CN(C(=O)N1CCc3c(O)noc3C1)C2` [Example 2.11, [5-cyclopropyl-6-(2,2,2-trifluoroethoxy)pyridin-3-yl]-[5-(3-hydroxy-5,7-dihydro-4H-[1,2]oxazolo[5,4-c]pyridine-6-carbonyl)-1,3,4,6-tetrahydropyrrolo[3,4-c]pyrrol-2-yl]methanone] reads 12 nM; that for `O=C(c1cc(OCC2CCCCC2)nc(C2CC2)c1)N1CC2=C(C1)CN(C(=O)N1CCc3c(O)noc3C1)C2` [Example 2.15, [2-(cyclohexylmethoxy)-6-cyclopropylpyridin-4-yl]-[5-(3-hydroxy-5,7-dihydro-4H-[1,2]oxazolo[5,4-c]pyridine-6-carbonyl)-1,3,4,6-tetrahydropyrrolo[3,4-c]pyrrol-2-yl]methanone], 1 nM; that for `O=C(c1cc(OCC2CCOCC2)nc(C2CC2)c1)N1CC2=C(CC(C(=O)N3CCc4c(O)noc4C3)C2)C1` [Example 7.00, [2-Cyclopropyl-6-(oxan-4-ylmethoxy)pyridin-4-yl]-[5-(3-hydroxy-5,7-dihydro-4H-[1,2]oxazolo[5,4-c]pyridine-6-carbonyl)-3,4,5,6-tetrahydro-1H-cyclopenta[c]pyrrol-2-yl]methanone], 5 nM.

In general, IC50 refers to the concentration that gives 50% inhibition. Low values mean higher potency, high ones lower potency.
